In ChEMBL document CHEMBL3244335 (J Med Chem, 1977):

Assay: Ionization constant, pKa of the compound
Format: physicochemical

## N=C(N)N[N+](=O)[O-]
  pKa: -0.9
